The results in this text go back to PubChem BioAssay AID1529 (NMMLSC, 2009).

Chains of the proteins cited; added tags and fusions are not shown.
UniProt Q99759, whole entry: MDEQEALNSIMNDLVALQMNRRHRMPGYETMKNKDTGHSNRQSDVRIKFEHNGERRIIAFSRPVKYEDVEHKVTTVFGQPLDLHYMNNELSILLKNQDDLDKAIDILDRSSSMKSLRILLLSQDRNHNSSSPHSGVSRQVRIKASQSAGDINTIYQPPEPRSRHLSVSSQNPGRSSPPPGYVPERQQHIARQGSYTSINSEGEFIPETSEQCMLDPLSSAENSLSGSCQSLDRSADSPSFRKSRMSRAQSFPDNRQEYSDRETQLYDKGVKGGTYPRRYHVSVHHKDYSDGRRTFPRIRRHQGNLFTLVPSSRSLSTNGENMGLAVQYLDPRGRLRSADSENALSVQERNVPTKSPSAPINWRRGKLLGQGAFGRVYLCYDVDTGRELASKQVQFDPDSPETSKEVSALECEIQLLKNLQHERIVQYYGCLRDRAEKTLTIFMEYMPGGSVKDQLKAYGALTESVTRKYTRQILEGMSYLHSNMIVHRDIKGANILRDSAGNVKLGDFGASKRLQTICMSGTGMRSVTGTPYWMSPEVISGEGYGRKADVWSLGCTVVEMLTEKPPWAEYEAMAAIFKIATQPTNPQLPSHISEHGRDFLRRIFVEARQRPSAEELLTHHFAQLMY

This is a selection; strong and weak results do not stand in their true shares. Some results for these compounds are left out of this collection, so the calls shown say nothing about other tests. Calls of active or inactive are those of the source.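 Rule for the calls: active = binding response more than 3 SD above or below the average of its plate-row segment, actives on both sides; inconclusive = wells at one plate position flagged as instrument error; inactive = the rest.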

For this assay, the target named is Mitogen-activated protein kinase kinase kinase 3 (Homo sapiens) (UniProt Q99759). Put plainly: compounds raising or lowering MEK5 association with MEKK3 PB1 – biochemical, wildtype MEKK3, multiplex bead flow cytometry, Alexa488-MEK5, primary screen (AID 1529).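 Note: Alexa488 bead fluorescence after subtracting the streptavidin-only scavenger bead signal.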 To be noted: bead-based flow cytometry, Alexa488-MEK5 binding to MEKK3; at 10 µM; actives lie on both sides; 0 = blocked by unlabeled MEK5, 100 = vehicle.
For the compound `O=C(NCC1(N2CCCCC2)CCCCC1)c1cc([N+](=O)[O-])ccc1Cl`, the binding response (% of control) is inactive: 73%.

`CN1[C@@H]2CC[C@H]1CC(OC(=O)C(O)(c1ccccc1)c1ccccc1)C2` (some centres undefined): the binding response (% of control) was inactive: 105%.

As to `COc1cc(SC)ccc1C(=O)NCC1(N(C)C)CCCCC1`, the binding response (% of control) was inactive: 104%.

For `CCN(CC)CC(C)C(C)OC(=O)C(O)(c1ccccc1)c1ccccc1` (centres undefined), the binding response (% of control) is inactive: 102%.

Consider `CC(C)N1C(=O)CC2(CCN(CCOC(=O)C(O)(c3ccccc3)c3ccccc3)CC2)C1=O`, for which the binding response (% of control) is inactive: 101%.

Regarding `Cc1ccc(C(=O)NCC2(N3CCCCC3)CCCCC2)cc1`, the binding response (% of control) is inactive: 103%.

For `CN(C)C1CCCC1OC(=O)C(O)(c1ccccc1)c1ccccc1` (centres undefined), the binding response (% of control) was inactive: 104%.

On to `CN(C)c1ccc(C(=O)NCC2(N(C)C)CCCCC2)cc1`, for which the binding response (% of control) was inactive: 103%.

`Cc1ccccc1C(=O)NCC1(N2CCCCC2)CCCCC1`: the binding response (% of control) is inactive: 104%.

As to `O=C(NCC1(N2CCCCC2)CCCCC1)c1cc(F)c(F)cc1Cl`, the binding response (% of control) was inactive: 98%.

Turning to `C=CCN1CCN(CCOC(=O)C(O)(c2ccccc2)c2ccccc2)CC1`, the binding response (% of control) was inactive: 107%.

For `COc1ccc(C(=O)NCC2(N(C)C)CCCCC2)cc1`, the binding response (% of control) is inactive: 101%.

As to `O=C(NCC1(N2CCCCC2)CCCCC1)c1cccc(Br)c1`, the binding response (% of control) is inactive: 98%.

Take `Cc1cc(C(=O)NCC2(N3CCCCC3)CCCCC2)ccc1[N+](=O)[O-]`: the binding response (% of control) is inactive: 103%.

For `CCN1CCCC(OC(=O)C2(O)c3ccccc3C=Cc3ccccc32)C1` (centres undefined), the binding response (% of control) was inactive: 99%.

On to `CN(C)C1(CNC(=O)c2ccc(Br)cc2)CCCCC1`, for which the binding response (% of control) was inactive: 101%.

Take `COc1cc(C(=O)NCC2(N(C)C)CCCCC2)c([N+](=O)[O-])cc1OC`: the binding response (% of control) is inactive: 94%.

With `COc1ccc(Cl)cc1C(=O)NCC1(N(C)C)CCCCC1`, the binding response (% of control) is inactive: 108%.

In the case of `COc1cccc(C(=O)NCC2(N3CCCCC3)CCCCC2)c1`, the binding response (% of control) was inactive: 102%.

Turning to `O=C(NCC1(N2CCCCC2)CCCCC1)c1cccc(Cl)c1`, the binding response (% of control) was inactive: 99%.

For `O=C(OC1CN2CCC1CC2)C(CO)(c1ccccc1)c1ccccc1` (centres undefined), the binding response (% of control) was inactive: 97%.

With `COc1ccc(Br)c(C(=O)NCC2(N3CCCCC3)CCCCC2)c1`, the binding response (% of control) is inactive: 97%.

As to `CC(C)Oc1ccc(C(=O)NCC2(N(C)C)CCCCC2)cc1`, the binding response (% of control) was inactive: 102%.

Take `CN(C)c1cccc(C(=O)NCC2(N(C)C)CCCCC2)c1`: the binding response (% of control) was inactive: 104%.
